Molecules are shown by their SMILES. This is a selection; strong and weak results do not stand in their true shares. Calls of active or inactive are those of the source. No stated cut-off is given here; in the data, active means inhibition above about 25%; inactive means the rest.

Chains of the proteins cited; added tags and fusions are not shown. Residues count along the entry.
UniProt Q9ULH1, 325-724 limits assumed: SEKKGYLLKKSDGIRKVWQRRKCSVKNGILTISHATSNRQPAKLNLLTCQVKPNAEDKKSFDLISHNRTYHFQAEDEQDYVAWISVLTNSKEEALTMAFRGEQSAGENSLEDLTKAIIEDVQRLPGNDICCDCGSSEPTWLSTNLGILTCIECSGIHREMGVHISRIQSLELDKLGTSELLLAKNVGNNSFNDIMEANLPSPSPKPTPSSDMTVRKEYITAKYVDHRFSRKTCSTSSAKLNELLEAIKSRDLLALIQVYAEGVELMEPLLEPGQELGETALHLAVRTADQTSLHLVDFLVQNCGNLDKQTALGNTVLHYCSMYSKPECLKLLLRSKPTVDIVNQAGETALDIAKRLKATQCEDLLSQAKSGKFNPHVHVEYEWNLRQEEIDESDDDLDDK

The experiment concerns the target Arf-GAP with SH3 domain, ANK repeat and PH domain-containing protein 1 (Homo sapiens) (UniProt Q9ULH1). Nature of the experiment: blockers of ASAP1-stimulated ARF1 GTP hydrolysis – biochemical, fluorescence polarization, primary screen (AID 624377).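 Further: 0% = vehicle with enzyme and substrate and 100% = no enzyme.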 As to conditions: GDP FP detection, at 16.5 µM, hits give high values.
As to `CCC(=O)N(c1ccccc1)C1(COC)CCN(CCn2nnn(CC)c2=O)CC1`, the inhibition is inactive: 2.22%.

Regarding `CCC(=O)N(c1ccccc1)C1(COC)CCN(CCc2cccs2)CC1`, the inhibition was inactive: -9.01%.

The values are drawn from PubChem BioAssay AID624377 (The Scripps Research Institute Molecular Screening Center, 2012).
